Among the data in patent publication US20250066350A1, “AROMATIC HETEROCYCLE-SUBSTITUTED COMPOUNDS, AND PREPARATION METHOD THEREFOR AND USE THEREOF” (Innovstone Therapeutics Limited, priority 2021, published 2025) are IC50 values, retold here.

The chains behind the UniProt entries cited, without tags or fusion partners.
UniProt Q13535, whole entry: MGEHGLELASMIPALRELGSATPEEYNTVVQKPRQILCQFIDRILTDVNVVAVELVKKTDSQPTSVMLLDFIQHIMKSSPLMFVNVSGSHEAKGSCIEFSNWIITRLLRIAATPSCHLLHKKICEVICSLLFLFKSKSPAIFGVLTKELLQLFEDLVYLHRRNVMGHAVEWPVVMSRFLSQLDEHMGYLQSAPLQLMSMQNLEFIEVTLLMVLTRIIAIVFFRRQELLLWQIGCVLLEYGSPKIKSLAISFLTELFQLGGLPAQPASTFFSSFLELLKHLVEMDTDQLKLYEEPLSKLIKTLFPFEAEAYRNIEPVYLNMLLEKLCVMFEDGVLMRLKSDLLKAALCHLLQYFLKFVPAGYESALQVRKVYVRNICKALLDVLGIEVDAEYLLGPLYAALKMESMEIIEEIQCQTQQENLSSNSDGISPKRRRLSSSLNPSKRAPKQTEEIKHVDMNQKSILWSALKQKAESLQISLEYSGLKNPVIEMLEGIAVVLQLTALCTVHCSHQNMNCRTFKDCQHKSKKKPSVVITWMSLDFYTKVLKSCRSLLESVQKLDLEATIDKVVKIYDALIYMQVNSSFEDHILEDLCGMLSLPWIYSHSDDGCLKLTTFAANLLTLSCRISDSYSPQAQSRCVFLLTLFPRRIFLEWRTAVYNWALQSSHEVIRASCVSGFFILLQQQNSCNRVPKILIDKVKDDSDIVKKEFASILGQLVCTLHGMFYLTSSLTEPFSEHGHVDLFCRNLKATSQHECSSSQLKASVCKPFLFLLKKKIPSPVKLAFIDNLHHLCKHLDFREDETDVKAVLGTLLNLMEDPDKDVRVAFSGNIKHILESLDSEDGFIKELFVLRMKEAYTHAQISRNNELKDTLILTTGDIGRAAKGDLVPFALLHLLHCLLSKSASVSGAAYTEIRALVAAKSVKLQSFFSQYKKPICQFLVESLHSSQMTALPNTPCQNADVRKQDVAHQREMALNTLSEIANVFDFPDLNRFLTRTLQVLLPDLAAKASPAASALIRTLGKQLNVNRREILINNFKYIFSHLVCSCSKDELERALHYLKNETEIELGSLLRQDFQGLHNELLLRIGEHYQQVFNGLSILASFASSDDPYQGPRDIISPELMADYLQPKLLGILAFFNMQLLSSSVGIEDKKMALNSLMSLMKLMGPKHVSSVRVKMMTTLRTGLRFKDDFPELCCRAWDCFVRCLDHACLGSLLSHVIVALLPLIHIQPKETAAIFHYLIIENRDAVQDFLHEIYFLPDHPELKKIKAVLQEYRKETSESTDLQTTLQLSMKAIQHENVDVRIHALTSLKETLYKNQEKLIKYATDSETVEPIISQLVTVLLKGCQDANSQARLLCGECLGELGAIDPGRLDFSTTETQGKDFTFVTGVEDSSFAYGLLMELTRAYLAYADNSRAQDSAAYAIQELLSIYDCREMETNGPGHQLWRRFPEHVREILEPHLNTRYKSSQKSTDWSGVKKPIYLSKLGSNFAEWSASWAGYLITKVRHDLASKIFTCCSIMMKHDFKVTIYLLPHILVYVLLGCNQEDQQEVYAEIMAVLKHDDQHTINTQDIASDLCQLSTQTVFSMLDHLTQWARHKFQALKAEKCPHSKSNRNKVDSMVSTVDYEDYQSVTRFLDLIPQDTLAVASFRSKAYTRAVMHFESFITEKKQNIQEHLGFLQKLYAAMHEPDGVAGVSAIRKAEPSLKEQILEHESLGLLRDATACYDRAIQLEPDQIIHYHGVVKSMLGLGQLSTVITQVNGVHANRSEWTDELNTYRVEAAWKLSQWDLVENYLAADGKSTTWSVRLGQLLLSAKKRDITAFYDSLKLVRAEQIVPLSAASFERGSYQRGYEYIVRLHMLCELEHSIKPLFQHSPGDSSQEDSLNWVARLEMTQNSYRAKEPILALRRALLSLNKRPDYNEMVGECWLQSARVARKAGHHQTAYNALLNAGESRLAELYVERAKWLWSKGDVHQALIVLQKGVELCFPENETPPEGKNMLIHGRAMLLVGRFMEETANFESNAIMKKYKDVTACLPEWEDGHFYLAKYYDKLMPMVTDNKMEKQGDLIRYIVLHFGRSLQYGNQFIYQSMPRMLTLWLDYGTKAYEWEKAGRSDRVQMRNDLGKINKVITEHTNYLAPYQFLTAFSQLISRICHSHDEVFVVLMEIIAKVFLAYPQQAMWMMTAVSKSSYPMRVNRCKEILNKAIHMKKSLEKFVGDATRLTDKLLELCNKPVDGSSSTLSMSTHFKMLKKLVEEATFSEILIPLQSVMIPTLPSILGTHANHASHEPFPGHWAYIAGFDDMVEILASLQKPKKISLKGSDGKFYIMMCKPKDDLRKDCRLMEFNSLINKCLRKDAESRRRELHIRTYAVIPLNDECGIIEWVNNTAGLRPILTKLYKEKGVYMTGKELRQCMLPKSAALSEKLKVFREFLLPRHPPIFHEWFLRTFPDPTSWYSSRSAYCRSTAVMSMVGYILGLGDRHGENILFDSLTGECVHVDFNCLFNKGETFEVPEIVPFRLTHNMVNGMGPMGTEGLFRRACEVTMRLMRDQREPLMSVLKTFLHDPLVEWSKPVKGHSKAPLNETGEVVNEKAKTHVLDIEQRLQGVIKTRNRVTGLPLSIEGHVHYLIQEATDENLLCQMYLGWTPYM
UniProt Q8WXE1, whole entry partner: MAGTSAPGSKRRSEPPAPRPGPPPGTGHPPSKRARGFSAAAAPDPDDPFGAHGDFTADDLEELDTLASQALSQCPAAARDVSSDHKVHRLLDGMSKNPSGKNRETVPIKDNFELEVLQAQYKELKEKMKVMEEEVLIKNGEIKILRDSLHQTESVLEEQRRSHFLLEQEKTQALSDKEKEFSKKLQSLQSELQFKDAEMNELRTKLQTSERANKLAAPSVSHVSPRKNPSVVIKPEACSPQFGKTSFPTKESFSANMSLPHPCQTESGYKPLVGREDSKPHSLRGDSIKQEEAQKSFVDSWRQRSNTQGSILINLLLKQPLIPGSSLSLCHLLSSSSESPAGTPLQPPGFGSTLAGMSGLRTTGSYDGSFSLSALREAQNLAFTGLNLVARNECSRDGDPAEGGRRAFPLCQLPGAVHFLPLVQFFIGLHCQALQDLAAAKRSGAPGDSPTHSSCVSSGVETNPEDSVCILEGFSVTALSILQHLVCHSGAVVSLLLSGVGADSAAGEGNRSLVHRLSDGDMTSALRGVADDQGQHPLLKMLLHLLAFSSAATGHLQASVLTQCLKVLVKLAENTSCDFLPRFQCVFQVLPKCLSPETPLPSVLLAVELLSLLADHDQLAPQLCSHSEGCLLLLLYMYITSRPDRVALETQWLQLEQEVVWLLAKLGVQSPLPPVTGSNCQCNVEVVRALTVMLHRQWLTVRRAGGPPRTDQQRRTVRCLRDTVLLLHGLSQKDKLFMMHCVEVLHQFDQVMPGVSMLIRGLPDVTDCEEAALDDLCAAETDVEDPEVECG

As a reminder, the pIC50 is the IC50 on a negative log10 scale, so that one unit is a factor of ten.

This assay addresses ATR enzyme (Homo sapiens (Human), UniProt Q13535). Kind of assay: Inhibitory effect on ATR enzyme (HTRF, phospho-P53). The settings on record: read-out: IC50 for ATR enzyme inhibition; 90 minutes incubation, 150 nM ATP final. Here is the method:
Test Example 1. Inhibitory Effect of Compounds of the Present Invention on ATR Enzyme
The following method is used to determine the inhibitory effect of the compounds of the present invention on the ATR enzyme. The experimental method is briefly described as follows:
1. ATR enzyme (Eurofins Pharma Discovery Services, 14-953M)
2. GST-tagged P53 protein (Eurofins Pharma Discovery Services, 14-952M)
15 nM ATR enzyme, 80 nM P53 protein, 300 nM ATP (the final concentrations were 40 nM and 150 nM, respectively), and small molecule compounds of various concentrations (the final concentrations (nM) of the ten points were 2985.0, 895.5, 298.5, 110.56, 33.17, 11.06, 4.09, 1.23, 0.41 and 0.15, respectively, and the final dimethyl sulfoxide concentration was 0.498%) were mixed and incubated at room temperature for 90 minutes. 10 μL of 2× cocktail buffer was added to the mixture of ATR, compound and substrate in the assay plate (anti-phospho-p53-Eu and anti-GST-d2 were diluted in the assay buffer). […] The FRET signal (endpoint) was measured in the Envision instrument (HTRF 665/612 ratio was calculated at 665 nm emission and 612 nm emission). […]
The inhibitory activity of the compounds of the present invention on the ATR enzyme can be determined by the test described above, and the measured IC50 values are shown in Table 1.

pIC50: −log10 of the molar value.

For `CNC(=O)C#Cc1cc(N2CCOC[C@H]2C)nc2c1cnn2-c1cc[nH]n1`, the pIC50 was 7.30 to 8.00.
